Molecules are shown by their SMILES. The source made the active and inactive calls. The calls are words filed in the database; no cut-off is given here.

The assay concerns PBMC. Nature of the assay: Induction of IL-2 production in human PBMC cells upto 50 uM preincubated for 30 mins followed by T-cell activation and measured after 24 hrs. The assay is classed as functional, cell-based. The following applies: time 24.5 hrs.

On to `COc1ccc2c(c1CC(=O)O)Oc1c(ccc(OC)c1CC(=O)N1[C@H](c3cc([N+](=O)[O-])cc(OC)c3OCC(=O)O)N(C)C(=O)[C@@H]1C)C2(C)C`, for which the result was inactive.

The values above are taken from ChEMBL document CHEMBL5532740, “Optimization of a Novel DEL Hit That Binds in the Cbl-b SH2 Domain and Blocks Substrate Binding” (ACS Med Chem Lett, 2024).
